System: human betaretrovirus (HBRV)
Experiment: Combination antiretroviral therapy (cART) in PBC patients
Type: in vivo
Conditions: randomized controlled trial, terminated early
From the text: Ursodeoxycholic acid (UDCA) is often considered the standard of care for PBC treatment and acts as a choleretic agent to ameliorate the toxic effects of bile within the liver. […] Combination anti-retroviral therapy (cART) may also provide potential adjunctive therapy to UDCA non-responders. […] Those able to tolerate cART, however, developed marked improvement in hepatic biochemistry and HBRV levels in the open label extension study.
Referring to FIG. 1B, this LT recipient developed severe recurrent PBC unresponsive to UDCA and changes in immunosuppression.

lopinavir-ritonavir was tested, and the tolerability was “poor tolerability”.

Source: US11635434B2, “Betaretrovirus epitopes and related methods of use” (priority 2018, dated 2023)
